Measured affinities in a library of Ab-91 heavy chain variants

All variants were tested on one target, the spike HR2 peptide PDVDLGDISGINAS (SARS-CoV-2).

Parent: Ab-91, a human scFv built as VL, three GGGGS repeats, VH. Only the CDRs of the heavy chain vary.
VL: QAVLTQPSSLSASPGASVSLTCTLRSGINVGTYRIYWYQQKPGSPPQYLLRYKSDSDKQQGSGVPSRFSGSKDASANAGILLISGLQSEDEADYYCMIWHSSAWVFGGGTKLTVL
VH: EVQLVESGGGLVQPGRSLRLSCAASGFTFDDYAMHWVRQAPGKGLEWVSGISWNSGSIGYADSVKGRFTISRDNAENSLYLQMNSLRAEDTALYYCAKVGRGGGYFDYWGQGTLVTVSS

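The parent was found by panning a naive human phage display library on the peptide. In library AAYL51, one, two or three CDR residues were substituted; doubles and triples were drawn at random. AlphaSeq pools MATa yeast showing the antibodies with MATalpha yeast showing the peptide. After mating in shaken culture at 30 °C for 16 h, diploids were selected and their barcode pairs sequenced. Read counts were normalised to the haploid input and turned into Kd by a linear fit to BCL2-family pairs of known affinity, for each replicate. Each pool was mated in three replicate cultures.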

Substitutions are numbered in sequence along the VH above, starting at 1 (not Kabat).
All variants listed here change I51 of the VH, counted from its first residue.
Affinities are written as log10 Kd with Kd in nM; a lower number is a better binder.
The mean shown is taken over the replicates in which the pair was detected.
Where no diploid with the target was found in that replicate, the entry reads "ND": below detection, most likely a poor binder, though not proof of it.

| changes | log10 Kd, replicates | mean log10 Kd (nM) |
|---|---|---|
| I51D N54K V64Q | ND ND ND | ND |
| F27A I51R S52N | ND ND ND | ND |
| T28G I51E | ND 5.83 ND | 5.83 |
| H35Y I51G G100H | 5.01 4.39 4.00 | 4.46 |
| D31F I51S Y105T | 5.32 6.42 ND | 5.87 |
| D30W I51L S57R | ND 6.13 ND | 6.13 |
| D31R I51M Y108I | 1.03 1.08 0.52 | 0.88 |
| I51V W53G Y108A | ND ND ND | ND |
| I51P R101M | ND 4.75 ND | 4.75 |
| F27M F29P I51V | 3.85 4.22 ND | 4.04 |
| G50S I51N Y105H | 3.97 ND ND | 3.97 |
| I51F S63R V64A | 5.26 ND ND | 5.26 |
| D31W I51E G103N | ND ND ND | ND |
| G26P T28S I51F | ND ND ND | ND |
| I51N A61S Y105V | ND ND ND | ND |
| G26I G50I I51W | 4.55 4.02 4.63 | 4.40 |
| F27P I51T | ND ND ND | ND |
| I51W S52H S63C | 6.05 6.19 4.51 | 5.58 |
| I51M F106C Y108H | ND ND ND | ND |
| D31C I51V W53L | 5.77 5.33 4.78 | 5.29 |
| G50K I51N | 5.63 ND ND | 5.63 |
| H35K I51N G59P | 4.48 ND ND | 4.48 |
| D30G I51E W53F | 2.39 2.56 2.77 | 2.57 |
| H35Y I51R G102V | ND 4.19 ND | 4.19 |
| I51T | 3.88 4.00 ND | 3.94 |
| T28E I51G D62K | ND ND ND | ND |
| I51L G100Q G104V | ND ND ND | ND |
| I51L S52H | ND 4.42 5.02 | 4.72 |
| D31R I51S N54I | 4.76 5.28 4.42 | 4.82 |
| I51K S52I Y105T | ND ND ND | ND |
| G26H I51L V64K | ND 4.65 4.97 | 4.81 |
| M34R I51T G56D | ND ND ND | ND |
| G26L I51E F106A | ND 3.58 ND | 3.58 |
| I51L W53C Y60V | 4.70 ND 4.15 | 4.42 |
| I51N W53R G100P | ND ND 3.95 | 3.95 |
| D31Q I51L G102Y | 3.20 3.34 2.11 | 2.88 |
| F27G D31P I51A | ND ND ND | ND |
| I51D G59P Y108P | ND ND ND | ND |
| Y32Q I51M G59E | ND ND ND | ND |
| I51N R101Q Y105L | ND ND ND | ND |
| F27I I51M | ND 4.23 4.93 | 4.58 |
| F27H I51R Y105K | ND 5.40 ND | 5.40 |
| I51L W53V G56Q | ND ND ND | ND |
| A33I I51R V64G | 5.18 ND ND | 5.18 |

Picked from the list: the 6 lowest averages where every replicate gave a value.

changes,"log10 Kd, replicates",mean log10 Kd (nM)
D31R I51M Y108I,1.03 1.08 0.52,0.88
D30G I51E W53F,2.39 2.56 2.77,2.57
D31Q I51L G102Y,3.20 3.34 2.11,2.88
G26I G50I I51W,4.55 4.02 4.63,4.40
H35Y I51G G100H,5.01 4.39 4.00,4.46
D31R I51S N54I,4.76 5.28 4.42,4.82

In this assay the parent's reference entry averaged 1.86; its copy inside this library read 0.88.
Three control strains display no target. For library AAYL51, 21% of the pairings with them gave a signal, with a median of 4.54 and one signal in twenty below 3.26, so weak values seen in few replicates may be background.

Data: MIT Lincoln Laboratory AlphaSeq set, Engelhart et al. 2022, doi:10.1038/s41597-022-01779-4, as distributed in FLAb.